# Binding of CDR-mutated scFvs to a peptide of the spike HR2 region

Reference: Li et al. 2023, doi:10.1038/s41467-023-39022-2. File: FLAb, binding data.

Antigen: PDVDLGDISGINAS, a 14-residue peptide of the SARS-CoV-2 spike HR2 region.

Parent: Ab-14, a human scFv built as VH, a (GGGGS)3 linker, VL. Only the CDRs of the heavy chain vary.
VH: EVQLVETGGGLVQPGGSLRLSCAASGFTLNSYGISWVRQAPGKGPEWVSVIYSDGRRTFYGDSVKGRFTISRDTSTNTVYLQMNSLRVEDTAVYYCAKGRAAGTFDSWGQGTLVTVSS
VL: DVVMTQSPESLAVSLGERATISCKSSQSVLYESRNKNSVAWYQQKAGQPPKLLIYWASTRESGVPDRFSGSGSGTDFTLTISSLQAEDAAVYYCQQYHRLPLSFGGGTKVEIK

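Designed CDR sequences, proposed from the first random library and measured here. Their group label is 14H_GPLM_Gibbs (GPLM: also part of the Gaussian process libraries; Gibbs: Gibbs sampling; a sequence that several methods proposed may carry one label only). In AlphaSeq, yeast of one mating type display the scFv and yeast of the other type display the target. Mating (16 h, 30 °C) was followed by selection of diploids and sequencing of their barcodes. Each replicate has its own calibration line, from reference interactions of the BCL2 family. Each pool was mated in six replicate cultures.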

Each variant is given by its three heavy chain CDRs, as the data file delimits them; those of the parent are GFTLNSYGIS, VIYSDGRRTFYGDSVK, GRAAGTFDS.
Scale: log10 of Kd in nM, estimated from mating counts; low values are strong binders.
A pair that was not seen in that replicate is written "nd"; this usually means weak binding, but a binder can also be missed.

| CDR-H1 | CDR-H2 | CDR-H3 | log10 Kd (nM) by replicate | empty controls |
|---|---|---|---|---|
| GFELNSYGIS | VIYSDGRRTFYIDSVK | GWAAGTFDS | nd 1.37 nd nd nd 1.25 | 0 of 18 |
| GFELESYGIS | VIYSDGKRTFYGDSVK | GRTAGTFDS | 0.50 0.37 -0.15 -0.13 -0.02 0.05 | 1 of 18 (1.47) |
| GFTLNSYGIS | VIYADGRRTFYGDSVK | GHAAGTFDL | 0.69 0.23 0.60 -0.04 -0.17 -0.01 | 0 of 18 |
| GFELNSYGIS | VIYSDGRRTFYGDSVK | GHVAGTFDS | 0.70 -0.05 0.38 0.75 1.19 1.19 | 1 of 18 (1.76) |
| GFTLNSYGIS | VIYSDGRRTFYGDSVK | GWVAGTFDF | nd 1.26 0.50 1.88 1.09 2.72 | 0 of 18 |
| GFDLNSYGIS | VIYSDGRRTFYGDSVK | GQAAGTFDN | 0.58 1.16 0.62 1.61 0.42 1.57 | 1 of 18 (1.85) |
| GFSLNDYGIS | VIYSDGRRTFYADSVK | GRQAGTFDS | 0.52 -0.09 -0.20 -0.23 0.16 -0.34 | 1 of 18 (1.29) |
| GFDLNSYGIS | VIYSDGRRTFYGDSVK | GRVAGTFDI | 0.06 0.20 -0.24 -0.30 -0.11 0.04 | 1 of 18 (0.69) |
| GFTLDSYGIS | VIYSDGKRTFYGDSVK | GRTAGTFDS | 1.51 1.87 0.81 0.59 0.77 0.79 | 1 of 18 (2.07) |
| GFDLNSYGIS | VIYSDGRRTFYGDAVK | GRTAGTFDS | -0.20 0.52 -0.21 -0.03 0.07 1.05 | 0 of 18 |
| GFDLNAYGIS | VIYSDGRRTFYGDSVK | GEAAGTFDS | 0.35 0.39 -0.40 -0.53 -0.69 -0.31 | 0 of 18 |
| GFSLNSYGIS | VIYSDGRRTFYSDQVK | GQAAGTFDS | 0.70 0.29 0.92 0.41 0.61 0.69 | 0 of 18 |
| GFSLNSYGIS | VIYADGRRTFYGDSVK | GKAAGTFDT | 0.25 -0.10 0.20 -0.21 -0.15 -0.19 | 0 of 18 |
| GFHLNSYGIS | VIYSDGRRTFYIDSVK | GQTAGTFDS | nd nd 1.45 nd nd nd | 0 of 18 |
| GFTLNSYGIS | VIYSDGRRTFYADSVK | GSEAGTFDS | nd nd nd nd nd nd | 0 of 18 |
| GFSLNMYGIS | VIYSDGRRTFYGDSVK | GRQAGTFDS | 0.82 0.30 0.20 0.49 0.14 0.54 | 0 of 18 |
| GFTLNSYGIS | VIYSDGRRTFYSDSVK | GRSAGTFDS | 2.17 1.09 2.21 1.48 1.38 1.23 | 1 of 18 (2.60) |
| GFSLNSYGIS | VIYSDGRRTFYGDSVK | GKEAGTFDT | -0.20 -0.43 -0.42 -0.79 -0.53 0.10 | 1 of 18 (1.67) |
| GFVLNSYGIS | VIYSDGRRTFYADSVK | GKVAGTFDS | 1.43 0.59 0.66 1.38 0.56 1.62 | 0 of 18 |
| GFTLESYGIS | VIYSDGRRTFYGDSVK | GKAAGTFDS | nd 1.47 1.23 1.78 nd nd | 0 of 18 |
| GFELNTYGIS | VIYSDGRRTFYGDSVK | GKTAGTFDS | nd nd nd 1.12 nd nd | 0 of 18 |
| GFNLNSYGIS | VIYSDGRRTFYSDSVK | GQTAGTFDS | 0.23 0.58 0.24 0.14 0.36 0.34 | 0 of 18 |
| GFSLNSYGIS | VIYSDGRRTFYGDNVK | GNTAGTFDS | 0.58 0.32 0.25 0.24 0.50 0.11 | 1 of 18 (1.84) |
| GFSLNEYGIS | VIYSDGRRTFYGDSVK | GRVAGTFDT | 0.26 -0.06 -0.19 0.17 -0.12 0.22 | 0 of 18 |
| GFSLNSYGIS | VIYSDGRRTFYGDNVK | GNAAGTFDS | 0.77 0.91 0.84 0.58 1.22 0.62 | 0 of 18 |
| GFDLNSYGIS | VIYSDGRRTFYADQVK | GRTAGTFDS | nd nd nd 1.56 1.12 0.42 | 0 of 18 |
| GFSLNQYGIS | VIYSDGRRTFYIDSVK | GNAAGTFDS | 0.18 -0.19 0.21 -0.27 -0.08 -0.03 | 1 of 18 (2.22) |
| GFELNSYGIS | VIYADGRRTFYGDSVK | GQAAGTFDV | 0.37 -0.06 -0.23 -0.25 -0.26 -0.36 | 1 of 18 (2.56) |
| GFWLNEYGIS | VIYSDGRRTFYADSVK | GRNAGTFDS | 0.46 0.20 0.52 -0.09 0.08 0.35 | 0 of 18 |
| GFSLNTYGIS | VIYSDGRRTFYIDSVK | GTAAGTFDS | 0.90 0.23 0.17 0.43 0.52 0.86 | 1 of 18 (2.02) |
| GFTLNSYGIS | VIYSDGRRTFYADDVK | GKAAGTFDS | 0.90 0.04 0.49 0.75 0.28 0.83 | 0 of 18 |
| GFTLDSYGIS | VIYSDGRRTFYGDSVK | GQTAGTFDS | 0.59 0.76 0.20 -0.09 0.45 1.21 | 0 of 18 |
| GFDLNSYGIS | VIYSDGRRTFYVDSVK | GQAAGTFDA | -0.73 -0.95 nd -1.87 -1.62 nd | 0 of 18 |
| GFDLNSYGIS | VIYSDGRRAFYGDSVK | GQAAGTFDS | 0.98 0.93 1.30 1.64 0.57 1.10 | 1 of 18 (1.63) |
| GFSLNEYGIS | VIYSDGRRTFYIDSVK | GRHAGTFDS | 0.67 0.46 0.24 0.27 0.42 0.47 | 0 of 18 |
| GFTLESYGIS | VIYSDGKRTFYADSVK | GRTAGTFDS | 0.70 -0.20 -0.75 -0.75 -0.07 0.24 | 0 of 18 |
| KFTLNSYGIS | VIYSDGRRTFYGDSVK | GKIAGTFDS | nd nd nd nd nd nd | 0 of 18 |
| GFDLNSYGIS | VIYSDGRRTFYGDSVK | GKAAGTFDT | 1.26 0.16 0.11 -0.02 0.98 -0.03 | 0 of 18 |
| GFHLNSYGIS | VIYSDGRRTFYADSVK | GREAGTFDA | 0.37 -0.01 -0.01 -0.02 0.26 0.26 | 0 of 18 |
| GFSLNSYGIS | VIYSDGRRTAYGDSVK | GNAAGTFDS | 2.21 0.37 0.12 0.84 0.31 0.45 | 0 of 18 |
| GFNLNSYGIS | VIYSDGRRTFYSDSVK | GRQAGTFDS | 0.22 0.06 0.04 -0.17 -0.14 0.04 | 0 of 18 |
| GFELNMYGIS | VIYSDGRRTFYHDSVK | GREAGTFDS | 1.26 0.07 0.42 -0.18 0.39 0.00 | 0 of 18 |
| GFTLNSYGIS | VIYSDGKRTFYGDAVK | GEAAGTFDL | 1.20 1.35 2.33 0.30 nd 1.71 | 0 of 18 |
| GFSLNSYGIS | VIYSDGRRTFYGDSVK | GMEAGTFDS | -0.19 -0.09 -0.34 -0.25 -0.18 -0.54 | 0 of 18 |
| GFSLNDYGIS | VIYSDGRRTFYGDSVK | GHAAGTFDS | 0.58 -0.06 0.37 0.33 0.87 -0.09 | 0 of 18 |
| GFELNSYGIS | VIYSDGRRTFYGDSVK | GSTAGTFDD | 0.08 0.29 0.95 0.46 0.22 0.58 | 0 of 18 |
| GFSLNSYGIS | VIYSDGRRTFYGDSVK | GREAGTFDN | 0.40 0.45 0.74 0.63 0.21 0.22 | 0 of 18 |
| GFELNSYGIS | VIYSDGRRTFYGDSVK | GKNAGTFDT | 2.41 0.94 0.31 1.22 0.23 0.77 | 0 of 18 |
| GFDLNSYGIS | VIYSDGRRTFYADSVK | GREAGTFDT | 0.52 0.39 -0.15 -0.18 -0.11 0.37 | 0 of 18 |
| KFTLNSYGIS | VIYSDGKRTFYSDSVK | GEAAGTFDS | 0.60 -0.26 0.56 1.34 1.67 1.33 | 0 of 18 |
| GFWLNEYGIS | VIYSDGRRTFYGDSVK | GRSAGTFDS | nd nd nd nd nd nd | 0 of 18 |
| GFQLNDYGIS | VIYSDGRRTFYGDSVK | GRTAGTFDK | -0.01 0.17 0.30 -0.14 0.06 1.10 | 1 of 18 (2.37) |

The first 3 variants above that were never detected:

CDR-H1,CDR-H2,CDR-H3,log10 Kd (nM) by replicate,empty controls
GFTLNSYGIS,VIYSDGRRTFYADSVK,GSEAGTFDS,nd nd nd nd nd nd,0 of 18
KFTLNSYGIS,VIYSDGRRTFYGDSVK,GKIAGTFDS,nd nd nd nd nd nd,0 of 18
GFWLNEYGIS,VIYSDGRRTFYGDSVK,GRSAGTFDS,nd nd nd nd nd nd,0 of 18

Empty control strains, which show no peptide, gave a signal in 1% of pairings with all heavy chain designs; the median was 2.08 and 95% of these signals were weaker than 0.84. No background was subtracted. Also given: how often the same scFv was detected with the empty control strains, with their mean in brackets.
The authors averaged sequences with at least three values out of six and counted those with two or fewer as poor binders.
A sequence measured in both rounds can read differently, since the two assays cover different ranges.